Experimental data: PubChem BioAssay AID1467 (National Center for Advancing Translational Sciences (NCATS), 2008)
The list shows a part of the results, in another mix than the full data. Some salts and complexes are drawn in separate pieces, as the source files them; their charges need not balance. Active and inactive are the calls of the source. Calls come from the whole dose curve; as a rule, active = well fitted curve in the direction sought with a large enough effect; inconclusive = small, poorly fitted or top-dose-only effect, or effect the other way, or another doubt; inactive = no such curve, though single readings can be large or run the other way.

By UniProt entry, the sequences of proteins in these tests, tags left out.
UniProt P06280, whole entry: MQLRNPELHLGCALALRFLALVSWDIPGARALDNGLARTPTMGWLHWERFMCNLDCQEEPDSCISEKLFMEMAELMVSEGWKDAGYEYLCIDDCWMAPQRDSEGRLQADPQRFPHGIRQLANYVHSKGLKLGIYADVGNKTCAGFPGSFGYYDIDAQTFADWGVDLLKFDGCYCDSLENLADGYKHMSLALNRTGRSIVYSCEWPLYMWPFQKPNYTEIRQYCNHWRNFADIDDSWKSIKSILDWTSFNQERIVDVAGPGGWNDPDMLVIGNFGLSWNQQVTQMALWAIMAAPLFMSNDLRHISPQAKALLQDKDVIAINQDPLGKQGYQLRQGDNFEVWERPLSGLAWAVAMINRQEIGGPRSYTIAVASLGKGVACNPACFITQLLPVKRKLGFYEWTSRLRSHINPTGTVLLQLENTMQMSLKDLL

What follows are molecules tested against Alpha-galactosidase A (Homo sapiens) (UniProt P06280) (assay: qHTS Assay for Inhibitors of Human alpha-Galactosidase at pH 4.5.). Details: purified enzyme, 4-MU-alpha-Gal fluorescence; at 105 µM (top of the series).
Text: NIH Chemical Genomics Center [NCGC]
NIH Molecular Libraries Probe Production centers Network [MLPCN]
Assay Submitter (PI): Wei Zheng
Alpha-galactosidase is a homodimeric glycoprotein that hydrolyzes the terminal alpha-galactosyl moieties from glycolipids and glycoproteins. Deficiency of this enzyme results in Fabry Disease with progressive accumulation of globotriaosylceramide and other glycosphingolipids in vascular endothelial cells that causes renal failure, myocardial infarction and stroke, and premature death in patients. It has been reported that the improper folding and trafficking of alpha-galactosidase resulting from the genetic mutations may account for a significant numbers of Fabry patients. […] We optimized this alpha-galactosidase assay in 1536-well plate format for identifying the novel small molecule inhibitors with the structures other than the sugar analogs in order to develop the new pharmacological chaperones. Although this assay has the same protocol as PubChem AID 992, this is a separate project and, therefore, is published as a separate assay
NCGC Assay Protocol Summary:
This is a fluorogenic enzyme assay with 4-Methylumbelliferyl alpha-D-galactopyranoside as the substrate and human […] as the enzyme preparation. Upon the hydrolysis of this fluorogenic substrate, the resulting product, […]. 4-Methyllumbelliferone, can be excited at 365 nm and emits at 440 nm. This fluorescence which can be detected by a standard fluorescence plate reader. Data were normalized to the controls for basal activity (without enzyme) and 100% activity (with enzyme). In the AC50 values were determined from concentration-response data modeled with the standard Hill equation.
Assay buffer: 50 mM citric acid (titrated with potassium phosphate to pH 4.5), 0.005% Tween-20, pH 4.5. (pH 4.5 is an optimal condition for this enzyme assay)
1536-well assay protocol for the human alpha-galactosidase:
(1) Add 2 ul/well of enzyme (12 nM final)
(2) Add 23 nL compounds in DMSO solution. The final titration was 0.7 nM to 77 uM.
(3) Add 1 ul of substrate (400 uM final)
(4) Incubate at room temperature for 20 min.
(5) Add 2 ul stop solution (1M NaOH and 1M Glycine mixture, pH 10)
(6) Detect the assay plate in a ViewLux plate reader (PerkinElmer) with Ex=365 nm and Em=440nm.
Keywords: MLSMR, MLPCN, NIH Roadmap, qHTS, NCGC, : Alpha-galactosidase, Fabry Disease, pharmacological chaperone, chaperone therapy
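Note: 0% = full activity with enzyme and -100% = basal without enzyme.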

Structure (SMILES)	activity change, negative = inhibition
O=[N+]([O-])c1cc([N+](=O)[O-])c(NCC2CCS(=O)(=O)C2)c([N+](=O)[O-])c1 (centres undefined)	inactive: -20.5%
CN1CCN(CCOC(=O)C(O)(c2ccccc2)c2ccccc2)CC1	inactive: 1.28%
COc1ccc(NC2CCN(C(=O)OC(C)(C)C)CC2)cc1	inactive: 2.02%
O=C(NCC1(N2CCOCC2)CCCCC1)c1cc(=O)[nH]c2ccccc12	inactive: 0.484%
O=C(NCC1(N2CCCCC2)CCCCC1)c1cccc([N+](=O)[O-])c1	inactive: 2.51%
N#CC1(Nc2ccccc2)CCN(CCc2ccccc2)CC1	inactive: -0.814%
COc1ccc2c(c1O)-c1c(O)c(OC)cc3c1[C@H](C2)[N+](C)(C)CC3.O=[N+]([O-])c1cc([N+](=O)[O-])c([O-])c([N+](=O)[O-])c1[O-]	inactive: -1.74%
O=C(OC1CN2CCC1CC2)c1ccc([N+](=O)[O-])cc1 (centres undefined)	inactive: 0.548%
CN(C)c1cccc(C(=O)NCC2(N3CCCCC3)CCCCC2)c1	inactive: 2.24%
COc1ccc(CN(CCCl)CCCl)cc1Cl	inactive: 2.85%
CC(C)c1ccc(NC2CCN(C(=O)OC(C)(C)C)CC2)cc1	inactive: -12.8%
O=C(NCC1(N2CCOCC2)CCCCC1)c1cc2ccccc2o1	inactive: -13.7%
CCOC(=O)N1CCC(Nc2ccc(OC)cc2)CC1	inactive: -3.69%
N#CC1(Nc2ccccc2)CCN(Cc2ccccc2)CC1	inactive: -12.6%
O=C(OC1CN2CCC1CC2)C1c2ccccc2Oc2ccccc21 (centres undefined)	inactive: -24.2%
COc1ccc(C(=O)NCC2(N3CCCCC3)CCCCC2)c(OC)c1OC	inactive: -3.12%
Cc1ccc(OCC(C)C)c(CN(CCCl)CCCl)c1	inactive: -4.5%

Structure (SMILES)	activity change, negative = inhibition
CCOc1ccc(C)cc1CN(CCCl)CCCl	inactive: -6.2%
COc1ccc(NC2CCN(CCc3ccccc3)CC2)c(OC)c1	inactive: -3.17%
CCN1CCC(Nc2cccc(F)c2)CC1	inactive: -2.46%
CN(C)c1ccc(C(=O)NCC2(N3CCCCC3)CCCCC2)cc1	inactive: -1.51%
Fc1ccccc1NC1CCN(Cc2ccccc2)CC1	inactive: -3.12%
CCC(CO)(C(=O)OC1CN2CCC1CC2)c1ccccc1 (centres undefined)	inactive: 7.2%
COc1cc(OC)cc(C(=O)NCC2(N3CCOCC3)CCCCC2)c1	inactive: 7.16%
CCCOc1ccc(C)cc1CN(CCCl)CCCl	inactive: -0.534%
CCOc1ncccc1C(=O)NCC1(N2CCOCC2)CCCCC1	inactive: 1.93%
CC(C)(C)OC(=O)N1CCC(Nc2ccccc2)CC1	inactive: -13%
N/C(=N\O)c1c(N)no[n+]1[O-]	inactive: 4.58%
O=C(O)c1cccc(Nc2c([N+](=O)[O-])cc([N+](=O)[O-])cc2[N+](=O)[O-])c1	inactive: 0.931%
O=C(OC1CN2CCC1CC2)C1c2ccccc2C=Cc2ccccc21 (centres undefined)	inactive: -11.8%
COc1ccc(C(=O)NCC2(N3CCOCC3)CCCCC2)cc1OC	inactive: -6.27%
c1ccc(CN2CCC(Nc3ccccc3)CC2)cc1	inactive: 0.129%
N#Cc1ccc(C(=O)NCC2(N3CCCCC3)CCCCC2)cc1	inactive: -2.33%
CCOC(=O)C(CC)C1=NC(C)(C)Cc2ccccc21.O=[N+]([O-])c1cc([N+](=O)[O-])c(O)c([N+](=O)[O-])c1 (centres undefined)	inactive: -15.4%
